Earlier results as cited in patent US11529363B2, “Methods of treating cancer in pediatric patients” (ARIAD Pharmaceuticals, Inc., priority 2018, dated 2022).

Tested on: ALK+ NSCLC
Settings: cited from earlier work

## C[C@@H](Oc1cc(-c2cnn(C3CCNCC3)c2)cnc1N)c1c(Cl)ccc(F)c1Cl [crizotinib]
ALK+ NSCLC
  time within which the majority of patients progress: ≤ 1 year
NSCLC patients treated with crizotinib
  patients with ALK-dependent mechanisms of resistance: approximately 30%
